Experimental data published in patent US7803381B2, “Retro-inverso gonadotropin-releasing hormone peptide and vaccine composition” (Shimoda Biotech (Pty) Ltd., priority 2002, dated 2010).

Key:
[1] = tested on: purified rabbit anti-RI-GnRH antibodies; assay: Inhibition immunoassay (ELISA): peptide displacement of anti-RI-GnRH antibodies from fixed RI-GnRH; format: binding; conditions: increasing peptide concentrations
Description: Microtitre plates were coated with RI-GnRH peptide (5 μg/ml) in 100 mM Na2CO3 (pH=9.6) and incubated for one hour at 37° C. After several washes with PBS (pH=7.4) plates were saturated for one hour with 1% BSA in PBS supplemented with Tween 20 (0.1% wt/volume) at 37° C. Sera from immunised rabbits and mice at different dilutions (1:500 to 1:3200) were added to the plates and incubated for one hour at 37° C. […] Washed plates were reacted with 3,3′,5,5′-tetramethyl benzidine (TMB) and […] as substrate.
Nonspecific inhibition was determined with an unrelated L peptide, […](V9C), and an unrelated RI peptide ([…]. Various dilutions of anti-RI-GnRH antibodies were preincubated with increasing concentrations of peptide (3.9-1000 nM) for 1 h at 37° C. The percent inhibition of signal was calculated from the amount of anti-RI-GnRH antibodies that bound RI-GnRH in the presence of increasing peptide concentrations against the amount of anti-RI-GnRH antibodies that bound RI-GnRH in the absence of competing peptide.

[2] = target: T1, human GnRH receptor (Homo sapiens, UniProt P30968); assay: GnRH analog-stimulated inositol phosphate (IP) accumulation in COS-1 cells transiently transfected with human GnRH receptor; format: cell-based; conditions: absence of antibody; read-out: EC50 of ligand-stimulated IP accumulation
T1 construct: expressed in transfected cells; host or cells: COS-1 cells, transient transfection (DEAE-Dextran), vector pcDNA I/AMP
T1 sequence (P30968 1-328): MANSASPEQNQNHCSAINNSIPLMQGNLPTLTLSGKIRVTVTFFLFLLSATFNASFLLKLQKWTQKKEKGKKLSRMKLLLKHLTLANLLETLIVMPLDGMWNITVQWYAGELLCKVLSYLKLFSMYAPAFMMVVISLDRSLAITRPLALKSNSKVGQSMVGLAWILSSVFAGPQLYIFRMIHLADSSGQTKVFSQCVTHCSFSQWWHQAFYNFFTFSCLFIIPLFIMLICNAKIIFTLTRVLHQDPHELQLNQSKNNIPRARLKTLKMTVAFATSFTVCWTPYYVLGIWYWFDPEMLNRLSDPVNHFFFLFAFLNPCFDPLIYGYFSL
Description: COS-1 cells were cultured in Dulbecco's modified Eagle's medium/DMEM (Life Technologies, Inc., Paisley, Scotland), supplemented with 10% foetal calf serum (FCS, Delta bioproducts, Kempton Park, South Africa) in a 10% CO2 incubator at 37° C. Cells were harvested with 0.05% trypsin. For all transient transfections 2×10^5 cells/well were seeded into 12-well plates and cultured overnight in DMEM containing 10% FCS and antibiotics (2 mg/ml streptomycin sulphate, 4000 U/ml sodium benzyl penicillin). COS-1 cells were transiently transfected using the DEAE-Dextran method, as previously described.
The transfected COS-1 cells (2×10^5 cells/well) were incubated overnight in 0.5 ml Medium 199 (Life Technologies Inc.) with antibiotics and myo-[2-^3H] inositol (1 μCi/well, Amersham Pharmacia Biotech) as previously described. […] Aspirating the medium and addition of 10 mM formic acid (1 ml/well) terminated the incubation. Inositol phosphates separated from the formic acid extract on DOWEX-1 ion exchange columns and eluted into scintillation liquid (Quicksafe, Zinsser Analytical, Frankfurt, Germany) and the radioactivity was counted.
IP assays were performed in duplicate and four-parameter nonlinear curve fitting (PRISM, GraphPad Software, In., San Diego, Calif.) was used to estimate the peptide concentrations required to stimulate half-maximal IP production (EC50). […]

inhibition by free peptide of anti-RI-GnRH antibody binding to fixed RI-GnRH [1]: cross-react less | EC50 [2]: 1 nM
SMILES: CC(C)C[C@H](NC(=O)CNC(=O)[C@H](Cc1ccc(O)cc1)NC(=O)[C@H](CO)NC(=O)[C@H](Cc1c[nH]c2ccccc12)NC(=O)[C@H](Cc1c[nH]cn1)NC(=O)[C@@H]1CCC(=O)N1)C(=O)N[C@@H](CCC(N)=O)C(=O)N1CCC[C@H]1C(=O)NCC(N)=O [[Gln^8]GnRH, reference compound]
